B1: Programmed cell death 6-interacting protein (Homo sapiens), Q8WUM4 (parent)
chain: MATFISVQLKKTSEVDLAKPLVKFIQQTYPSGGEEQAQYCRAAEELSKLRRAAVGRPLDKHEGALETLLRYYDQICSIEPKFPFSENQICLTFTWKDAFDKGSLFGGSVKLALASLGYEKSCVLFNCAALASQIAAEQNLDNDEGLKIAAKHYQFASGAFLHIKETVLSALSREPTVDISPDTVGTLSLIMLAQAQEVFFLKATRDKMKDAIIAKLANQAADYFGDAFKQCQYKDTLPKEVFPVLAAKHCIMQANAEYHQSILAKQQKKFGEEIARLQHAAELIKTVASRYDEYVNVKDFSDKINRALAAAKKDNDFIYHDRVPDLKDLDPIGKATLVKSTPVNVPISQKFTDLFEKMVPVSVQQSLAAYNQRKADLVNRSIAQMREATTLANGVLASLNLPAAIEDVSGDTVPQSILTKSRSVIEQGGIQTVDQLIKELPELLQRNREILDESLRLLDEEEATDNDLRAKFKERWQRTPSNELYKPLRAEGTNFRTVLDKAVQADGQVKECYQSHRDTIVLLCKPEPELNAAIPSANPAKTMQGSEVVNVLKSLLSNLDEVKKEREGLENDLKSVNFDMTSKFLTALAQDGVINEEALSVTELDRVYGGLTTKVQESLKKQEGLLKNIQVSHQEFSKMKQSNNEANLREEVLKNLATAYDNFVELVANLKEGTKFYNELTEILVRFQNKCSDIVFARKTERDELLKDLQQSIAREPSAPSIPTPAYQSSPAGGHAPTPPTPAPRTMPPTKPQPPARPPPPVLPANRAPSATAPSPVGAGTAAPAPSQTPGSAPPPQAQGPPYPTYPGYPGYCQMPMPMGYNPYAYGQYNMPYPPVYHQSPGQAPYPGPQQPSYPFPQPPQQSYYPQQ

Variants of: B1
Conditions: with SH3GL1, Q99961-1

Row | Variant | effect of a mutation on the interaction
1 | R757E | decreasing interaction strength
